“And” between values parts separate entries of the source, which are not always exact repeats. Equal values may be shown once.
Molecular target: His-tagged, doubly phosphorylated LAT (48–233aa; pY132 and pY171) (UniProt O43561)
Test: co-sedimentation

Chains of the proteins cited; added tags and fusions are not shown. Lines headed by an entry give the natural chain unless they say otherwise; changes in a name come on top.
UniProt O43561: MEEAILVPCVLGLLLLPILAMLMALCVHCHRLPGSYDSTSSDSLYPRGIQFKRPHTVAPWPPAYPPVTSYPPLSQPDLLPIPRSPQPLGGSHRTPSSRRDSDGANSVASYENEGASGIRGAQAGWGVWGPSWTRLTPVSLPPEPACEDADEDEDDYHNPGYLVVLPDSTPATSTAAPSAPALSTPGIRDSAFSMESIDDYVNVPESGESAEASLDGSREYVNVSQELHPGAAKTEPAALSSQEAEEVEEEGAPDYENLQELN

B1: phospholipase-Cγ1 (PLC-γ1), 1–1219aa, untagged, non-phosphorylated (enzyme)
chain: MAGAASPCANGCGPGAPSDAEVLHLCRSLEVGTVMTLFYSKKSQRPERKTFQVKLETRQITWSRGADKIEGAIDIREIKEIRPGKTSRDFDRYQEDPAFRPDQSHCFVILYGMEFRLKTLSLQATSEDEVNMWIKGLTWLMEDTLQAPTPLQIERWLRKQFYSVDRNREDRISAKDLKNMLSQVNYRVPNMRFLRERLTDLEQRSGDITYGQFAQLYRSLMYSAQKTMDLPFLEASTLRAGERPELCRVSLPEFQQFLLDYQGELWAVDRLQVQEFMLSFLRDPLREIEEPYFFLDEFVTFLFSKENSVWNSQLDAVCPDTMNNPLSHYWISSSHNTYLTGDQFSSESSLEAYARCLRMGCRCIELDCWDGPDGMPVIYHGHTLTTKIKFSDVLHTIKEHAFVASEYPVILSIEDHCSIAQQRNMAQYFKKVLGDTLLTKPVEISADGLPSPNQLKRKILIKHKKLAEGSAYEEVPTSMMYSENDISNSIKNGILYLEDPVNHEWYPHYFVLTSSKIYYSEETSSDQGNEDEEEPKEVSSSTELHSNEKWFHGKLGAGRDGRHIAERLLTEYCIETGAPDGSFLVRESETFVGDYTLSFWRNGKVQHCRIHSRQDAGTPKFFLTDNLVFDSLYDLITHYQQVPLRCNEFEMRLSEPVPQTNAHESKEWYHASLTRAQAEHMLMRVPRDGAFLVRKRNEPNSYAISFRAEGKIKHCRVQQEGQTVMLGNSEFDSLVDLISYYEKHPLYRKMKLRYPINEEALEKIGTAEPDYGALYEGRNPGFYVEANPMPTFKCAVKALFDYKAQREDELTFIKSAIIQNVEKQEGGWWRGDYGGKKQLWFPSNYVEEMVNPVALEPEREHLDENSPLGDLLRGVLDVPACQIAIRPEGKNNRLFVFSISMASVAHWSLDVAADSQEELQDWVKKIREVAQTADARLTEGKIMERRKKIALELSELVVYCRPVPFDEEKIGTERACYRDMSSFPETKAEKYVNKAKGKKFLQYNRLQLSRIYPKGQRLDSSNYDPLPMWICGSQLVALNFQTPDKPMQMNQALFMTGRHCGYVLQPSTMRDEAFDPFDKSSLRGLEPCAISIEVLGARHLPKNGRGIVCPFVEIEVAGAEYDSTKQKTEFVVDNGLNPVWPAKPFHFQISNPEFAFLRFVVYEEDMFSDQNFLAQATFPVKGLKTGYRAVPLKNNYSEDLELASLLIKIDIFPAKENGD
  % of protein binding to LUV: 44.2% and 37.9%
